Results on 25 compounds are retold here after PubChem BioAssay (Tox21).

The entries are a selection whose mix differs from that of the whole data set. Inconclusive results are not listed. Active and inactive are the calls of the source. The call rests on the fitted dose curve; in most records, active means well fitted cell-killing curve with a large enough effect in the repeat runs; inconclusive means weak or mixed curves, or effect the other way; inactive means flat fitted curve, though single readings scatter.
On the % scale 0 is the no-effect control and ±100 the full control effect; potency means the concentration at half of the fitted maximal effect.

This experiment is described as follows: qHTS assay to identify small molecule antagonists of the androgen receptor (AR) signaling pathway using the MDA cell line in the presence of 0.5 nM R1881 - cell viability counter screen (AID 1259242). Further: nearly all actives have a fitted effect of over 45% in size. The note with it: MDA-kb2 viability, CellTiter-Fluor protease fluorescence, 16 h; series mostly up to 92.4 µM; viability change, negative = cytotoxic: at the top concentration. From the text: U.S. Tox21 Program National Center for Advancing Translational Sciences [NCATS] NIH Chemical Genomics Center [NCGC] U.S. Environmental Protection Agency [EPA] National Institutes of Environmental Health Sciences [NIEHS] National Toxicology Program [NTP] U.S. Food and Drug Administration [FDA] Tox21 Assay Overview: Androgen receptor (AR) is an important member of the nuclear receptor family. Its signaling plays a critical role in AR-dependent prostate cancer and other androgen related diseases. Considerable attention has been given in the past decades to develop methods to study and screen for the environmental chemicals that have the potential to interfere with metabolic homeostasis, reproduction, developmental and behavioral functions. Therefore AR binding assay for screening androgen antagonists can be used to identify potential endocrine disruptors. MDA-kb2 cells (from ATCC, deposited by Wilson et al.) were used to screen for AR inhibitors against Tox21 compound libraries. These cells are human breast carcinoma cells that were stably transfected with a luciferase reporter gene under control of the MMTV promoter that contains response elements for both androgen receptor (AR) and glucocorticoid receptor (GR). The current screening for identification of AR inhibitors against Tox21 libraries used lower concentration of (0.5 nM) R1881 as a stimulator. The cytotoxicity of the Tox21 compound libraries against MDA-kb2 cell line was tested by measuring live-cell protease activity using CellTiter-Fluor assay in the same wells.
Tox21 Assay Protocol Summary: MDA-kb2 cells (cells cultured without CO2) were dispensed at 3,000 cells/well in 4 uL of culture medium into white wall/solid-bottom 1536-well plates (Corning Life Sciences, Corning, NY) using a Multidrop Combi (ThermoFisher Scientific, Waltham, MA) dispenser. After the assay plates were incubated at a 37C and 0% CO2 for 5 hr, 23 nL of compounds dissolved in DMSO, positive controls or DMSO only was transferred to the assay plate by a Pintool station (Kalypsys, San Diego, CA). The transfer of compounds was followed by the addition of 1 uL of 0.5 nM (final concentration) agonist (R1881)/culture medium using a Flying Reagent Dispenser (FRD, Aurora Discovery, San Diego, CA). The plates were incubated at 37C and 0% CO2 for 16 hr. For cytotoxicity assay, 1 uL of CellTiter-Fluor reagent (Promega Corporation, Madison, WI) was added to each well using the FRD and after 30 min incubation at 37C and 0% CO2, The fluorescence intensity was measured using ViewLux plate reader (PerkinElmer, Shelton, CT).
Turning to `O=C(Cl)OCCOC(=O)Cl`, the “viability change, negative = cytotoxic” value is inactive: 2.4%. Regarding `CN(C(=O)Cc1ccccc1)[C@H]1CC[C@@]2(CCCO2)C[C@@H]1N1CCCC1`, the “viability change, negative = cytotoxic” value was inactive: -10.9% [at 42.5 µM]. On to `CCCCO[P+](=O)OCCCC`, for which the Potency result is “inactive”. For the compound `CCOC(=O)Cl`, the “viability change, negative = cytotoxic” value is inactive: 1.62%.

As for `CN(C(=O)Cc1ccc(Cl)c(Cl)c1)[C@H]1CC[C@@]2(CCCO2)C[C@@H]1N1CCCC1`, the “viability change, negative = cytotoxic” value was inactive: 2.28% [at 42.5 µM]. The same measure, in the same setting: the same measure for `CC(C)OP(=S)(OC(C)C)SCCNS(=O)(=O)c1ccccc1`: inactive: -4.14%; for `CC(C)CCCCCCCOP(OCCCCCCCC(C)C)Oc1ccccc1`: inactive: 2.06%. Turning to `NC(=O)Nc1ccc([As](=O)(O)O)cc1`, the Potency entry was “inactive”.

Take `O=[P+](Oc1ccccc1)Oc1ccccc1`: the “viability change, negative = cytotoxic” value was inactive: 5.41%. With `CCNC(C)Cc1ccc2c(c1)OCO2` (stereo not given), the “viability change, negative = cytotoxic” value was inactive: -0.666%. Same read-out and setting: the same measure for `ClP(Cl)c1ccccc1`: inactive: 0.594%. Still for that read-out and setting: the result for `O=[p+]1oc2ccccc2c2ccccc21` (stereo not given) reads inactive: 4.97%. With `O=[As]c1ccccc1` (stereo not given), the Potency was active: 3.06 µM. For the compound `CCCCC(CC)CO[P+](=O)OCC(CC)CCCC` (stereo not given), the “viability change, negative = cytotoxic” value is inactive: 6.32%. With `O=P(Cl)(Oc1ccccc1)Oc1ccccc1`, the “viability change, negative = cytotoxic” value is inactive: 1.47%. Same read-out and setting: the result for `O=[N+]([O-])c1ccc(S(=O)(=O)O)c([N+](=O)[O-])c1` reads inactive: -0.667%; that for `CCC(C)(OOC(C)(C)C)OOC(C)(C)C`, inactive: -1.71% [at 19 µM]; that for `CCCCOP(OCCCC)OCCCC`, inactive: 1.58%. Same read-out and setting: the same measure for `CN(N=O)C(=N)N[N+](=O)[O-]`: inactive: -12.2%. The same measure, in the same setting: the result for `O=C(Cl)Oc1ccccc1` reads inactive: -2.49%; that for `COC(=O)Cl`, inactive: -0.744%. Consider `CCOP(=S)(CC)Sc1ccccc1` (stereo not given), for which the “viability change, negative = cytotoxic” value is inactive: -0.0289%. Turning to `CN(C(=O)Cc1cccc2occc12)[C@H]1CC[C@@]2(CCCO2)C[C@@H]1N1CCCC1`, the “viability change, negative = cytotoxic” value is inactive: 1.22%.

`O=P(Cl)(Cl)c1ccccc1`: the “viability change, negative = cytotoxic” value is inactive: -1.57%. Take `COP(=S)(Cl)OC`: the “viability change, negative = cytotoxic” value is inactive: 3.89%.
